Laboratory results from PubChem BioAssay AID1046 (PCMD, 2008).
The entries are a selection whose mix differs from that of the whole data set. Some salts and complexes are drawn in separate pieces, as the source files them; their charges need not balance. Calls of active or inactive are those of the source.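 Rule for the calls: active = inhibition at or above 40%; inactive = inhibition below 40%.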

molecular target: Prothrombin (Homo sapiens) (UniProt P00734); assay: blockers of thrombin peptide substrate cleavage – biochemical, 1536-well, fluorogenic AMC substrate, counter-screen for coagulation protease inhibitor project, primary screen (AID 1046); details: alpha-thrombin, Boc-VPR-AMC fluorogenic substrate cleavage; at 5 µM; active compounds read high;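 note: 0% = enzyme with no compound and 100% = wells without enzyme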

Q: For O=C(OCCCN1CCCC1)C(O)(c1ccccc1)C1CCCCC1 (stereo not drawn), which inhibition is on record?
A: inactive: 0.85%

Q: With CP(=O)(Oc1ccccc1)N1CCOC1=O (stereo not drawn) as the molecule, how does the inhibition read?
A: inactive: 19.7%

Q: How did the inhibition turn out when CCc1ccc(OP(C)(=O)Nc2cccnc2)cc1 (stereo not drawn) was run?
A: inactive: -11.3%

Q: How did the inhibition turn out when CCN(CC)CC(O)COC(=O)C(O)(c1ccccc1)C1CCCCC1 (stereo not drawn) was run?
A: inactive: 0.61%

Q: Which inhibition does the source give for COc1ccc(OP(C)(=O)Nc2ccc(Br)cc2)cc1 (stereo not drawn) here?
A: inactive: -7.18%

Q: CN(C)C(=O)c1c([N+](=O)[O-])cc([N+](=O)[O-])cc1[N+](=O)[O-] was tested. Which inhibition did it give?
A: inactive: -41.9%

Q: Which inhibition does the source give for COc1ccccc1OP(C)(=O)Nc1ccccc1Br (stereo not drawn) here?
A: inactive: -11.3%

Q: With CC(C)(C)c1ccc(OP(C)(=O)O)cc1 as the molecule, how does the inhibition read?
A: inactive: -2.43%

Q: For CP(=O)(Nc1ccc(Cl)cc1)Oc1ccc(F)cc1 (stereo not drawn), which inhibition is on record?
A: inactive: -0.35%

Q: Which inhibition does the source give for CCOC(=O)c1ccc(NP(C)(=O)Oc2ccc(Cl)cc2)cc1 (stereo not drawn) here?
A: inactive: -2.19%

Q: For CP(=O)(OC12CC3CC(CC(C3)C1)C2)OC12CC3CC(CC(C3)C1)C2, which inhibition is on record?
A: inactive: -4.45%

Q: For COc1ccccc1OP(C)(=O)Nc1ccc(C)c(C)c1 (stereo not drawn), which inhibition is on record?
A: inactive: -1.46%

Q: COc1ccc(OP(C)(=O)Nc2ccccc2Br)cc1 (stereo not drawn) was tested. Which inhibition did it give?
A: inactive: -0.78%

Q: For Cc1cc(C)cc(OP(C)(=O)Nc2cccc(C(F)(F)F)c2)c1 (stereo not drawn), which inhibition is on record?
A: inactive: -8.77%

Q: CP(=O)(Nc1ccc(Cl)cc1Cl)Oc1ccccc1 (stereo not drawn) was tested. Which inhibition did it give?
A: inactive: -1.38%

Q: For CP(=O)(OCCOc1ccccc1)OCCOc1ccccc1, which inhibition is on record?
A: inactive: -1.92%

Q: With Cc1nc2ccc3ccccc3c2o1.O=[N+]([O-])c1cc([N+](=O)[O-])c(O)c([N+](=O)[O-])c1 as the molecule, how does the inhibition read?
A: inactive: -0.24%

Q: For COc1ccc(OP(C)(=O)Nc2ccccn2)cc1 (stereo not drawn), which inhibition is on record?
A: inactive: -5.07%

Q: How did the inhibition turn out when CN(C)CCOC(=O)C(O)(c1ccccc1)C1CCCC1 (stereo not drawn) was run?
A: inactive: -5.17%

Q: Which inhibition does the source give for COc1ccccc1OP(C)(=O)Nc1ccc(Br)cc1 (stereo not drawn) here?
A: inactive: -5.73%

Q: With CP(=O)(Nc1ccccn1)Oc1ccccc1 (stereo not drawn) as the molecule, how does the inhibition read?
A: inactive: 0.5%

Q: For COc1ccccc1OP(C)(=O)Nc1ccc(C)cc1C (stereo not drawn), which inhibition is on record?
A: inactive: -5.26%

Q: For CCc1ccc(OP(C)(=O)O)cc1, which inhibition is on record?
A: inactive: -4.02%

Q: Which inhibition does the source give for Cc1c(NP(C)(=O)Oc2ccc(C(C)C)cc2)c(=O)n(-c2ccccc2)n1C (stereo not drawn) here?
A: inactive: 2.43%

Q: O=[N+]([O-])c1cc([N+](=O)[O-])c(Nc2ccccn2)c([N+](=O)[O-])c1 was tested. Which inhibition did it give?
A: inactive: -5.61%

Q: CP(=O)(Nc1ccccc1F)Oc1ccccc1 (stereo not drawn) was tested. Which inhibition did it give?
A: inactive: -5.96%

Q: CC(C)c1ccc(OP(C)(=O)Nc2ccc(SC(F)(F)F)cc2)cc1 (stereo not drawn) was tested. Which inhibition did it give?
A: inactive: 0.26%

Q: With COc1ccc2c(c1O)-c1c(O)c(OC)cc3c1[C@H](C2)[N+](C)(C)CC3.O=[N+]([O-])c1cc([N+](=O)[O-])c([O-])c([N+](=O)[O-])c1[O-] as the molecule, how does the inhibition read?
A: inactive: 2.4%

Q: How did the inhibition turn out when O=C(OC1CN2CCC1CC2)c1ccc([N+](=O)[O-])cc1 (stereo not drawn) was run?
A: inactive: -3.28%

Q: O=C(OCCN1CCN(CCOCc2ccccc2)CC1)C(O)(c1ccccc1)c1ccccc1 was tested. Which inhibition did it give?
A: inactive: -2.49%

Q: With CCOC(=O)c1ccc(NP(C)(=O)Oc2ccc(F)cc2)cc1 (stereo not drawn) as the molecule, how does the inhibition read?
A: inactive: -7.75%

Q: With COc1ccc(OP(C)(=O)Nc2ccc(SC(F)(F)F)cc2)cc1 (stereo not drawn) as the molecule, how does the inhibition read?
A: inactive: 1.49%

Q: CP(=O)(Nc1ccccc1)Oc1ccc(F)cc1 (stereo not drawn) was tested. Which inhibition did it give?
A: inactive: 3.78%

Q: With CCCCCOc1ccc(NP(C)(=O)Oc2ccc(Cl)cc2Cl)cc1 (stereo not drawn) as the molecule, how does the inhibition read?
A: inactive: 1.95%

Q: With CCN(CC)CCCOC(=O)C(O)(c1ccccc1)C1CCCCC1 (stereo not drawn) as the molecule, how does the inhibition read?
A: inactive: -6.43%

Q: Which inhibition does the source give for CN(C)CCOC(=O)C(O)(c1ccccc1)C1CCCCC1 (stereo not drawn) here?
A: inactive: -0.51%

Q: How did the inhibition turn out when COc1ccc(NP(C)(=O)Oc2ccccc2OC)cc1 (stereo not drawn) was run?
A: inactive: -3.31%

Q: Which inhibition does the source give for COc1ccc(OP(C)(=O)Nc2cccc(Br)c2)cc1 (stereo not drawn) here?
A: inactive: -1.89%

Q: How did the inhibition turn out when Cc1cc(-c2cccc3ccccc23)c(C)cn1.O=[N+]([O-])c1cc([N+](=O)[O-])c(O)c([N+](=O)[O-])c1 was run?
A: inactive: -4.09%

Q: For O=[N+]([O-])c1cc([N+](=O)[O-])c(NCC2CCS(=O)(=O)C2)c([N+](=O)[O-])c1 (stereo not drawn), which inhibition is on record?
A: inactive: -4.35%

Q: With CCOP(C)(=S)SCC(=O)NC(C)(CC)C(=O)O (stereo not drawn) as the molecule, how does the inhibition read?
A: inactive: -13%

Q: For CP(=O)(Nc1ccc(SC(F)(F)F)cc1)Oc1ccc(F)cc1 (stereo not drawn), which inhibition is on record?
A: inactive: -4.27%

Q: How did the inhibition turn out when Cc1ccccc1NP(C)(=O)Nc1ccccc1C was run?
A: inactive: -5.92%

Q: CP(=O)(Nc1ccc2c(c1)OCCO2)Oc1ccccc1 (stereo not drawn) was tested. Which inhibition did it give?
A: inactive: -2.78%

Q: Which inhibition does the source give for O=[N+]([O-])c1cc([N+](=O)[O-])c(-n2nnc3ccccc32)c([N+](=O)[O-])c1 here?
A: inactive: -2.46%

Q: Which inhibition does the source give for Cc1nc2ccc3ccccc3c2s1.O=[N+]([O-])c1cc([N+](=O)[O-])c(O)c([N+](=O)[O-])c1 here?
A: inactive: 4.76%

Q: With O=[N+]([O-])c1cc([N+](=O)[O-])c(Nc2nnnn2CCO)c([N+](=O)[O-])c1 as the molecule, how does the inhibition read?
A: inactive: -2.14%

Q: With CCOC(=O)C(CC)C1=NC(C)(C)Cc2ccccc21.O=[N+]([O-])c1cc([N+](=O)[O-])c(O)c([N+](=O)[O-])c1 (stereo not drawn) as the molecule, how does the inhibition read?
A: inactive: -5.51%

Q: With CP(=O)(Nc1ccc(SC(F)(F)F)cc1)Oc1ccccc1 (stereo not drawn) as the molecule, how does the inhibition read?
A: inactive: -5.2%

Q: With CN1CCCCC1COC(=O)C1(O)c2ccccc2CCc2ccccc21 (stereo not drawn) as the molecule, how does the inhibition read?
A: inactive: -2.25%

Q: How did the inhibition turn out when COc1ccccc1OP(C)(=O)Nc1c(C)cccc1C (stereo not drawn) was run?
A: inactive: -0.05%

Q: For O=C(O)c1cccc(Nc2c([N+](=O)[O-])cc([N+](=O)[O-])cc2[N+](=O)[O-])c1, which inhibition is on record?
A: inactive: -3.45%

Q: CC1=NCCc2c1[nH]c1ccccc21.O=[N+]([O-])c1cc([N+](=O)[O-])c(O)c([N+](=O)[O-])c1 was tested. Which inhibition did it give?
A: inactive: -0.24%

Q: How did the inhibition turn out when CCOC(=O)c1ccc(NP(C)(=O)Oc2cc(C)cc(C)c2)cc1 (stereo not drawn) was run?
A: inactive: -4.87%

Q: Which inhibition does the source give for Cc1cc(C)cc(OP(C)(=O)Nc2ccc(C)cc2C)c1 (stereo not drawn) here?
A: inactive: -1.41%

Q: Which inhibition does the source give for COc1ccccc1OP(C)(=O)Nc1cccc(Br)c1 (stereo not drawn) here?
A: inactive: 3.26%

Q: For Cc1ccc(C)c(NP(C)(=O)Oc2ccccc2)c1 (stereo not drawn), which inhibition is on record?
A: inactive: -0.71%

Q: Which inhibition does the source give for Cc1cc(C)cc(OP(C)(=O)Nc2ccccn2)c1 (stereo not drawn) here?
A: inactive: -7.27%
